# Measured values taken from ChEMBL document CHEMBL4402597, “Truncated (N)-Methanocarba Nucleosides as Partial Agonists at Mouse and Human A3 Adenosine Receptors: Affinity Enhancement by N6-(2-Phenylethyl) Substitution” (J Med Chem, 2020).
# Molecular target: T1, Adenosine receptor A3 (Mus musculus, UniProt Q61618)
# T1 sequence (Q61618 whole entry): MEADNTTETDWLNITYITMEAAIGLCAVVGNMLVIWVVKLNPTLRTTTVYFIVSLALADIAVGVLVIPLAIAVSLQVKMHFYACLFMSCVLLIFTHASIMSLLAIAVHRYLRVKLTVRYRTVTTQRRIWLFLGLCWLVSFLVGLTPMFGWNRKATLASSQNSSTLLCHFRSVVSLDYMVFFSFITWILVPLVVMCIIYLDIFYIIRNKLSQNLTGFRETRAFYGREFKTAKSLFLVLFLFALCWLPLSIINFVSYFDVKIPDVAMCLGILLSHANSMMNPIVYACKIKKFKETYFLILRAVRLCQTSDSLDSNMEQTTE
structure (smiles),measurement,value
COc1cc(CCNc2nc(C#Cc3ccccc3)nc3c2ncn3[C@H]2[C@H](O)[C@H](O)[C@@H]3C[C@@H]32)ccc1O,Ki,17.8 nM
